Assay results from patent US20240409944A1, “COMPOSITIONS AND METHODS FOR THE INHIBITION OF TUMOR METASTASIS AND HORIZONTAL GENE TRANSFER” (The Regents of the University of Colorado, a body corporate, priority 2021, published 2024).
Read-outs that look alike come from different tables or passages of the source. *1 amine or outer side, *2 acyl side, *3 side chain or, on linkers, in order; H or OH if unused. Where a SMILES comes first, the peptide text is derived from it. Bridges are numbered along the chain shown (N, C = ends). Roman numbers before positions name the chains, in order. [ ]: non-standard residue; d: D form. Actinocin(9to1) = Cc1c2oc3c(C)ccc(C(=O)[*:1])c3nc-2c(C(=O)[*:2])c(N)c1=O; NMeV = CN[C@H](C(=O)O)C(C)C; Sar = CNCC(=O)O

Tested on: MDA-MB-231-H2B-mCherry and RPE1-VEP co-culture
[1] = 10 μM Doxorubicin, 20 μM Actinomycin D, 100 μM Hygromycin B

SMILES | CIC entry/exit time (time occurrence) compared to DMSO [1] | CIC structure duration compared to DMSO [1] | average duration of CIC structures (10 μM Doxorubicin, 20 μM Actinomycin D, 100 μM Hygromycin B, alone or combined, 48-hour imaging) [h] | time at which CIC structures were concentrated (entry-exit) (10 μM Doxorubicin, 20 μM Actinomycin D, 100 μM Hygromycin B, alone or combined, 48-hour imaging period) [h] | concentration that produced the highest frequency of CIC structures (10 μM, 20 μM and 40 μM tested, 48 hours live cell imaging) [µM] | CIC entry/exit time (time occurrence) compared to DMSO | CIC structure duration compared to DMSO | average duration of CIC structures [h] | concentration that produced the highest frequency of CIC structures [µM] | time at which CIC structures were concentrated (entry-exit) [h]
COc1cccc2c1C(=O)c1c(O)c3c(c(O)c1C2=O)C[C@@](O)(C(=O)CO)C[C@@H]3O[C@H]1C[C@H](N)[C@H](O)[C@H](C)O1 [Doxorubicin] | significantly increased | significantly increased | 14.24 | 14 to 27.7 | 10 |  |  |  |  | 
Cc1c2oc3c(C)ccc(C(=O)N[C@@H]4C(=O)N[C@H](C(C)C)C(=O)N5CCC[C@H]5C(=O)N(C)CC(=O)N(C)[C@@H](C(C)C)C(=O)O[C@@H]4C)c3nc-2c(C(=O)N[C@@H]2C(=O)N[C@H](C(C)C)C(=O)N3CCC[C@H]3C(=O)N(C)CC(=O)N(C)[C@@H](C(C)C)C(=O)O[C@@H]2C)c(N)c1=O [Actinomycin D] (I: T[dV]P[Sar][NMeV] / II: T[dV]P[Sar][NMeV]; ester I:1-I:C, II:1-II:C; linker I:N-II:N via Actinocin(9to1)) |  |  |  |  |  | no significance | no significance | 8.9 | 20 | 7.8 to 16.9
